Target: Peroxisome proliferator-activated receptor gamma (Homo sapiens, UniProt P37231)
Assay: Activity at PPARgamma (unknown origin) assessed as transactivation activity by reporter gene assay relative to rosiglitazone

Amino acid sequences for entries named in this document (tags omitted). A change or cut given only in a name is not applied to a line headed by its entry.
UniProt P37231: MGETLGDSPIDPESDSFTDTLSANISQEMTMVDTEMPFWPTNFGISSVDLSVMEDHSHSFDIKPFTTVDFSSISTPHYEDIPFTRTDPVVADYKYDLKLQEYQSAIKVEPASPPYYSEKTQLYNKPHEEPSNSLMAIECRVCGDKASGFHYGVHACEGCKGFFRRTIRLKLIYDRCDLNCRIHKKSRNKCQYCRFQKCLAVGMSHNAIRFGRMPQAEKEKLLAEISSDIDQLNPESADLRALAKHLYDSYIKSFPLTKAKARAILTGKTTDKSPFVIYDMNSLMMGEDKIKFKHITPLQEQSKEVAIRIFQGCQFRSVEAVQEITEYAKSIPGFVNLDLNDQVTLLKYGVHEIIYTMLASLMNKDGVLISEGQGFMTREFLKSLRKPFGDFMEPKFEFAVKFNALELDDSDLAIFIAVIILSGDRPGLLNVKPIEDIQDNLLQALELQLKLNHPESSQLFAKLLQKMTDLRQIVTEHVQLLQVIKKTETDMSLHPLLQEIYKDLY

- %max: 0%
Compound: Cc1c(C)n(Cc2ccc(-c3ccccc3C(=O)O)cc2)c2ccc(C(=O)N[C@@H](C)c3ccc([N+](=O)[O-])cc3)cc12

Source: ChEMBL document CHEMBL3585309, “Peroxisome Proliferator-Activated Receptor γ (PPARγ) and Ligand Choreography: Newcomers Take the Stage” (J Med Chem, 2015)
